Antibody variant affinities, Ab-95 light chain, assay 2

Reference: Engelhart et al. 2022, doi:10.1038/s41597-022-01779-4. File: FLAb, binding data.

Target: peptide PDVDLGDISGINAS, taken from heptad repeat 2 (HR2) of SARS-CoV-2 spike.

Each scFv is VH, a 15-residue (Gly4Ser)3 linker, VL, as in the parent Ab-95, and differs from it in the CDRs of the light chain only.
VH: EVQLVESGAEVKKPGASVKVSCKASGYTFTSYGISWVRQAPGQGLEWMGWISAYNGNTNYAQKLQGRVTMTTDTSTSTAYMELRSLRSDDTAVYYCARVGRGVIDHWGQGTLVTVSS
VL: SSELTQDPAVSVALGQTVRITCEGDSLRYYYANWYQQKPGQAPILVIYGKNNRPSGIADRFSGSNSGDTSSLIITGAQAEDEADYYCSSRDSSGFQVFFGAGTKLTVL

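Phage display of a naive human antibody library on the peptide gave the parent. Library AAYL52 holds single substitutions and randomly drawn double and triple substitutions in the CDRs. The assay is AlphaSeq: two haploid yeast populations carry antibody and antigen on their surface. Binding brings cells together so that they mate, and sequencing counts the barcode pairs among the diploids. Read counts were normalised to the haploid input and turned into Kd by a linear fit to BCL2-family pairs of known affinity, for each replicate. There are three technical replicates.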

Positions count from residue 1 of the parent VL; D25M puts M in place of D. This list gathers variants with a substitution at A32 (VL, numbered from residue 1). The Kd shown is the geometric mean over detected replicates; a lower Kd is a better binder. "nd" marks a missing value. The strain was present, yet no cells mated with the target were sequenced in any replicate, which points to weak or no binding. Entries are sorted by rising average, undetected variants last. As a blank, each scFv also met three strains without target: over library AAYL52, 28% of these pairings were detected, typically at 8.2 µM and seldom below 800 nM. Parent in this assay: reference entry 200 nM, copy in this library 180 nM.

For D25M+A32P+S93M, the assay gave 160 nM (3 of 3 replicates).
For A32C+S92Y, the assay gave 360 nM (3 of 3 replicates).
For A32W, the assay gave 400 nM (3 of 3 replicates).
For Y30V+A32Q, the assay gave 620 nM (3 of 3 replicates).
For G24I+A32N+N51I, the assay gave 1.1 µM (1 of 3 replicates).
For E23M+A32G+S55P, the assay gave 1.1 µM (3 of 3 replicates).
For Y31C+A32R+N33D, the assay gave 2.3 µM (1 of 3 replicates).
For E23V+L27S+A32W, the assay gave 2.8 µM (1 of 3 replicates).
For Y30R+A32W+P54Y, the assay gave 2.9 µM (1 of 3 replicates).
For A32Q+N33W+P54W, the assay gave 3.2 µM (1 of 3 replicates).
For D25A+A32L+F95M, the assay gave 4.2 µM (3 of 3 replicates).
For L27I+A32D+F98G, the assay gave 4.5 µM (3 of 3 replicates).
For A32Q+G49L+R53D, the assay gave 7.4 µM (2 of 3 replicates).
For G24P+A32D+K50C, the assay gave 8.2 µM (2 of 3 replicates).
For A32W+F95M+F98V, the assay gave 13 µM (1 of 3 replicates).
For A32G+N33F+S88V, the assay gave 16 µM (2 of 3 replicates).
For A32Y+S93I+G94C, the assay gave 16 µM (3 of 3 replicates).
For D25L+A32C+R53C, the assay gave 20 µM (2 of 3 replicates).
For E23C+A32G+F95C, the assay gave 22 µM (1 of 3 replicates).
For A32N+S89H+F98I, the assay gave 28 µM (2 of 3 replicates).
For G24F+A32R+S92K, the assay gave 32 µM (2 of 3 replicates).
For D25R+A32F+N51H, the assay gave 37 µM (2 of 3 replicates).
For A32Y+G94R+F98M, the assay gave 40 µM (1 of 3 replicates).
For A32I+S92N+G94I, the assay gave 48 µM (2 of 3 replicates).
For G24F+A32W, the assay gave 51 µM (1 of 3 replicates).
For G24F+Y31L+A32R, the assay gave 54 µM (2 of 3 replicates).
For Y30K+A32E+N51C, the assay gave nd (0 of 3 replicates).
For Y30A+A32D, the assay gave nd (0 of 3 replicates).
For A32Q+N51Q+D91M, the assay gave nd (0 of 3 replicates).
For D25L+A32H+S55C, the assay gave nd (0 of 3 replicates).
For A32W+S89W, the assay gave nd (0 of 3 replicates).
For A32R+N33I+F98W, the assay gave nd (0 of 3 replicates).
For D25N+A32M+Q96N, the assay gave nd (0 of 3 replicates).
For A32M+G49Y+P54L, the assay gave nd (0 of 3 replicates).
For G24R+Y31Q+A32L, the assay gave nd (0 of 3 replicates).
For A32L+N52S+P54L, the assay gave nd (0 of 3 replicates).
For Y30M+A32W+S89L, the assay gave nd (0 of 3 replicates).
For A32D+S55F+S89H, the assay gave nd (0 of 3 replicates).
For S26I+A32Q+S93L, the assay gave nd (0 of 3 replicates).

Again, the first 6 entries without any signal:

With Y30K+A32E+N51C the result was nd (0 of 3 replicates).
With Y30A+A32D the result was nd (0 of 3 replicates).
With A32Q+N51Q+D91M the result was nd (0 of 3 replicates).
With D25L+A32H+S55C the result was nd (0 of 3 replicates).
With A32W+S89W the result was nd (0 of 3 replicates).
With A32R+N33I+F98W the result was nd (0 of 3 replicates).